Data from patent US11905324B2, “Fluorescent fusion polypeptide capable of detecting phosphorylation of cellular membrane receptors by GRKs (G-protein receptor kinases) and/or receptor tyrosine kinases (RTKs)” (Innovative Technologies in Biological Systems SL, priority 2017, dated 2024).

Protein sequences, listed by entry. Tags and fused reporters are not part of them.
UniProt P30989, whole entry, species assumed: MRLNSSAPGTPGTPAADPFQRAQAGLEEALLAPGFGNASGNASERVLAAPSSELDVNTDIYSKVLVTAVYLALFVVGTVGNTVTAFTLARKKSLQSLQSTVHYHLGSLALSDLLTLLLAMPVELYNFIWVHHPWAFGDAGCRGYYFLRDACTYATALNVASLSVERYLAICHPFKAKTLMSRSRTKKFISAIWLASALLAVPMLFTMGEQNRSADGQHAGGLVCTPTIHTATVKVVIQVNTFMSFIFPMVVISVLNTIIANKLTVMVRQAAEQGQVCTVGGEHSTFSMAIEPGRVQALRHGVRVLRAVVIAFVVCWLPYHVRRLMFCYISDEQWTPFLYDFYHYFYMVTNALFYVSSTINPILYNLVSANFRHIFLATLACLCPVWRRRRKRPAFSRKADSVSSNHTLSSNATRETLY

Target: T1, NTSR1 (Homo sapiens, UniProt P30989)
T1 construct: expressed in transfected cells
Experiment: Anti-TAC immunofluorescence assay of NTSR1 ArrestinNomad biosensor cell line
Format: cell-based
Conditions: NTS 1 μM, 24 hours
Description: After overnight incubation, cell media was removed and it was performed a 15 minutes incubation with FBS (Sigma-Aldrich) at 4° C. Followed by a 90 minutes incubation at 4° C. with FITC anti-human CD25 antibody (Biolegend) at 1:20 concentration. Cells were then washed twice with PBS (Sigma-Aldrich). Fluorescent images were acquired in the BD PATHWAY 855 High-Content automated image platform (Franklin Lakes, NJ) with a ×20 dry objective. The excitation and emission filters used were the following: for FITC, 488/10 and 540/20; and for FP650, 548/20 and 570LP.

## NTS
  Localization of ArrestinNomad biosensor after addition of the agonist: relocalization of the biosensor from the plasma membrane to vesicle trafficking pathways
